This is an account of results in patent publication US9403855B2 (priority 2010, dated 2016).

This assay addresses neuraminidase of A/California/7/2009 (pandemic H1N1) (Influenza A virus, UniProt C3W6G3). In words: biochemical. Also on record: species or system Influenza virus A/California/7/2009 (pandemic H1N1).

The term pIC50 denotes −log10 of the IC50, conventionally taken in molar units.

pIC50: −log10 of the molar value.

Molecule `CCC(CC)O[C@@H]1C=C(C(=O)O)C[C@H](N)[C@H]1NC(C)=O` [Oseltamivir acid, oseltamivir carboxylic acid, reference compound] had a pIC50 of 8.77.
